Results as given in ChEMBL document CHEMBL5154808, “Novel β-Hairpin Antimicrobial Peptides Containing the β-Turn Sequence of -RRRF- Having High Cell Selectivity and Low Incidence of Drug Resistance” (J Med Chem, 2022).
Values after ≈ are worked out from the molar mass of the structure shown.

What was measured:
Type in all cases: functional
Staphylococcus aureus = assay: Antimicrobial activity against Staphylococcus aureus ATCC 25923 assessed as reduction of bacterial growth incubated for 18 hrs by CLSI protocol based broth microdilution method
Bacillus subtilis = assay: Antimicrobial activity against Bacillus subtilis ATCC 23857 assessed as reduction of bacterial growth incubated for 18 hrs by CLSI protocol based broth microdilution method
[1] = test system: Staphylococcus epidermidis; assay: Antimicrobial activity against Staphylococcus epidermidis ATCC 12228 assessed as reduction of bacterial growth incubated for 18 hrs by CLSI protocol based broth microdilution method
Escherichia coli = assay: Antimicrobial activity against Escherichia coli ATCC 25922 assessed as reduction of bacterial growth incubated for 18 hrs by CLSI protocol based broth microdilution method
Pseudomonas aeruginosa = assay: Antimicrobial activity against Pseudomonas aeruginosa ATCC 27853 assessed as reduction of bacterial growth incubated for 18 hrs by CLSI protocol based broth microdilution method

Q: For `CC[C@H](C)[C@H](NC(=O)CN)C(=O)NCC(=O)N[C@@H](C)C(=O)N[C@H](C(=O)N[C@@H](CC(C)C)C(=O)N[C@@H](CCCCN)C(=O)N[C@H](C(=O)N[C@@H](CC(C)C)C(=O)N[C@H](C(=O)N[C@H](C(=O)NCC(=O)N[C@@H](CC(C)C)C(=O)N1CCC[C@H]1C(=O)N[C@@H](C)C(=O)N[C@@H](CC(C)C)C(=O)N[C@H](C(=O)N[C@@H](CO)C(=O)N[C@@H](Cc1c[nH]c2ccccc12)C(=O)N[C@H](C(=O)N[C@@H](CCCCN)C(=O)N[C@@H](CCCNC(=N)N)C(=O)N[C@@H](CCCCN)C(=O)N[C@@H](CCCNC(=N)N)C(=O)N[C@@H](CCC(N)=O)C(=O)N[C@@H](CCC(N)=O)C(N)=O)[C@@H](C)CC)[C@@H](C)CC)[C@@H](C)O)[C@@H](C)O)C(C)C)C(C)C` [MELITTIN], which MIC (Staphylococcus aureus) is on record?
A: Its MIC is 8 µM (≈ 22.8 µg/mL).

Q: And the MIC (Bacillus subtilis)?
A: Its MIC is 2 µM (≈ 5.69 µg/mL).

Q: And the MIC [1]?
A: The MIC was 4 µM (≈ 11.4 µg/mL).

Q: And the MIC (Escherichia coli)?
A: Its MIC is 8 µM (≈ 22.8 µg/mL).

Q: And the MIC (Pseudomonas aeruginosa)?
A: The MIC was 8 µM (≈ 22.8 µg/mL).
